One compound from patent US20260274833A1 (NiKang Therapeutics, Inc., priority 2022, published 2026) can be followed below.

The target in the experiment is CDK2 (Homo sapiens, UniProt P24941). The experiment in a line: Phospho-RB measurement in OVCAR3 cells (HTRF phospho-RB cellular kit). Conditions: read-out: CDK2 IC50, inhibition of RB phosphorylation at S807/811 (HTRF, TR-FRET ratio 665/620), 24 h compound treatment, 0.3 to 10,000 nM. The protocol:
Biological Example 1: Phospho-RB Measurement in OVCAR3 Cells
The ability of compounds of Formula (I) to inhibit CDK2 was determined in OVCAR3 cells by measuring inhibition of phosphorylation of RB protein at S780 and S807/811. Phosphorylation of RB protein at S807/811 were measured using HTRF phospho-RB cellular kits (Cat #64RBS807PEG) from Cisbio.
On Day 1, OVCAR3 cells were seeded into 96-well tissue-culture treated plates at 20,000 cells/well in 200 μL and incubated overnight at 37° C. in CO2 atmosphere. On Day 2, the cells were treated with test compounds at concentrations from 0.3 to 10,000 nM using HP D300 digital dispenser. Twenty-four hours after compound treatment, cell culture media was removed by flicking the plate and tapping the plate against clean paper towel. Immediately 30 μL 1× lysis buffer was supplemented from the kit and the plate was incubated at room temperature on shaker for 30 min. After homogenization by pipetting up and down, 8 μL cell lysate from 96-well cell culture plate was transferred to 384-well small volume white detection plate. […]
Detection plates were incubated for 4 h at room temperature and read on ClarioStar (BMG Labtech) in TR-FRET mode ([…]). […] Half maximal inhibition concentration (IC50) values are calculated with a four-parameter logistic fit using GraphPad Prism (version 8; La Jolla, CA).

In the case of `CN(C)C(=O)c1cccc2c1CN(S(=O)(=O)Nc1cccc(-c3nc(C(C)(C)C)sc3-c3ccnc(NC4CC5(C4)CS(=O)(=O)C5)n3)c1F)C2`, the IC50 worked out at 3.01 µM.
